ChEMBL document CHEMBL3232856, “Endomorphin analogues with mixed μ-opioid (MOP) receptor agonism/δ-opioid (DOP) receptor antagonism and lacking β-arrestin2 recruitment activity” (Bioorg Med Chem, 2014)
Calls of active or inactive are those of the source. The calls are words filed in the database; no cut-off is given here.

Protein sequences, listed by entry. Tags and fused reporters are not part of them. Lines headed by an entry give the natural chain unless they say otherwise; changes in a name come on top.
UniProt P35372, whole entry: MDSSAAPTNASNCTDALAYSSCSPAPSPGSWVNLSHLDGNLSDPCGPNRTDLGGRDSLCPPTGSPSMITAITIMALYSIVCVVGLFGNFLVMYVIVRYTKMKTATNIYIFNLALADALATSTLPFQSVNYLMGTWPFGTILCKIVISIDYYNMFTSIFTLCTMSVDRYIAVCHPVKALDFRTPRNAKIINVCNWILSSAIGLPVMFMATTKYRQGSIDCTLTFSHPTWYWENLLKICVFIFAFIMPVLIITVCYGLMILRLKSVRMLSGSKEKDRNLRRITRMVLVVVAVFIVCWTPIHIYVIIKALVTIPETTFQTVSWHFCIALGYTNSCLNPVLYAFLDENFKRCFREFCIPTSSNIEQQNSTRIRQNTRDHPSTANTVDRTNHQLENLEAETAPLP
UniProt P41143, whole entry: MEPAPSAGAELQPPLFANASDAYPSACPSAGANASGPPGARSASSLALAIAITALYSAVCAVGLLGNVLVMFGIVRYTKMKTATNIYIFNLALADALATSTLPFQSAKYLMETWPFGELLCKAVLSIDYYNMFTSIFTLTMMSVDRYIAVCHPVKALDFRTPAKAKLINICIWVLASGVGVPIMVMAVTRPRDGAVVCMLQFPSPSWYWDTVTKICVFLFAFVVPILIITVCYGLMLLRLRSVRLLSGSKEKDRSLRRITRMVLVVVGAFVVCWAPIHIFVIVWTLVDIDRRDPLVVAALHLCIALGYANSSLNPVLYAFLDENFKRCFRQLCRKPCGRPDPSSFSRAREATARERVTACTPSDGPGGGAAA
UniProt P41145: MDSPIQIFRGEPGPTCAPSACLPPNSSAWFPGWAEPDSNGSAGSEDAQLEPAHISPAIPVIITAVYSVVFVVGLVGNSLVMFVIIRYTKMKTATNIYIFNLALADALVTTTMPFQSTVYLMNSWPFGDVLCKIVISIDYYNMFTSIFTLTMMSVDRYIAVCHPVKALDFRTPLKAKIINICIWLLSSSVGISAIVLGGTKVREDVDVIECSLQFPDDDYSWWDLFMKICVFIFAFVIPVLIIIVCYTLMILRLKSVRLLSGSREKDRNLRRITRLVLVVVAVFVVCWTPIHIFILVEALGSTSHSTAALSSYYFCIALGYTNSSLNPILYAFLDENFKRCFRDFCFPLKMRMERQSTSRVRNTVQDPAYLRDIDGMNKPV

Experiments:
[1] = target: T1, Mu-type opioid receptor (Homo sapiens, UniProt P35372); conditions: HEK293, at 100 µM
[2] = target: T2, Delta-type opioid receptor (Homo sapiens, UniProt P41143); conditions: HEK293, at 0.1 to 10 µM
[3] = target: T2, Delta-type opioid receptor; conditions: HEK293, at 100 µM
[4] = target: Kappa-type opioid receptor (Homo sapiens, UniProt P41145); conditions: HEK293, at 0.1 to 10 µM
[5] = target: T2, Delta-type opioid receptor; conditions: HEK293, at 100 µM; remark: listed apart in the source
[6] = target: T1, Mu-type opioid receptor; conditions: HEK293, at 1 µM

Compound | inhibition [1] | inhibition [2] | inhibition [3] | inhibition [4] | inhibition [5] | inhibition [6]
Cc1cc(O)cc(C)c1C[C@H](N)C(=O)N1CCC[C@H]1C(=O)N[C@@H](Cc1cccc2ccccc12)C(N)=O | Active | inactive | inactive | inactive | 93.2% | Active
Cc1cccc(C)c1C[C@H](NC(=O)[C@@H]1CCCN1C(=O)[C@@H](N)Cc1c(C)cc(O)cc1C)C(N)=O | inactive | inactive | inactive | inactive | inactive | Active
